{"sequences": {"note": "The chains behind the UniProt entries cited, without tags or fusion partners.", "UniProt Q15788, whole entry": "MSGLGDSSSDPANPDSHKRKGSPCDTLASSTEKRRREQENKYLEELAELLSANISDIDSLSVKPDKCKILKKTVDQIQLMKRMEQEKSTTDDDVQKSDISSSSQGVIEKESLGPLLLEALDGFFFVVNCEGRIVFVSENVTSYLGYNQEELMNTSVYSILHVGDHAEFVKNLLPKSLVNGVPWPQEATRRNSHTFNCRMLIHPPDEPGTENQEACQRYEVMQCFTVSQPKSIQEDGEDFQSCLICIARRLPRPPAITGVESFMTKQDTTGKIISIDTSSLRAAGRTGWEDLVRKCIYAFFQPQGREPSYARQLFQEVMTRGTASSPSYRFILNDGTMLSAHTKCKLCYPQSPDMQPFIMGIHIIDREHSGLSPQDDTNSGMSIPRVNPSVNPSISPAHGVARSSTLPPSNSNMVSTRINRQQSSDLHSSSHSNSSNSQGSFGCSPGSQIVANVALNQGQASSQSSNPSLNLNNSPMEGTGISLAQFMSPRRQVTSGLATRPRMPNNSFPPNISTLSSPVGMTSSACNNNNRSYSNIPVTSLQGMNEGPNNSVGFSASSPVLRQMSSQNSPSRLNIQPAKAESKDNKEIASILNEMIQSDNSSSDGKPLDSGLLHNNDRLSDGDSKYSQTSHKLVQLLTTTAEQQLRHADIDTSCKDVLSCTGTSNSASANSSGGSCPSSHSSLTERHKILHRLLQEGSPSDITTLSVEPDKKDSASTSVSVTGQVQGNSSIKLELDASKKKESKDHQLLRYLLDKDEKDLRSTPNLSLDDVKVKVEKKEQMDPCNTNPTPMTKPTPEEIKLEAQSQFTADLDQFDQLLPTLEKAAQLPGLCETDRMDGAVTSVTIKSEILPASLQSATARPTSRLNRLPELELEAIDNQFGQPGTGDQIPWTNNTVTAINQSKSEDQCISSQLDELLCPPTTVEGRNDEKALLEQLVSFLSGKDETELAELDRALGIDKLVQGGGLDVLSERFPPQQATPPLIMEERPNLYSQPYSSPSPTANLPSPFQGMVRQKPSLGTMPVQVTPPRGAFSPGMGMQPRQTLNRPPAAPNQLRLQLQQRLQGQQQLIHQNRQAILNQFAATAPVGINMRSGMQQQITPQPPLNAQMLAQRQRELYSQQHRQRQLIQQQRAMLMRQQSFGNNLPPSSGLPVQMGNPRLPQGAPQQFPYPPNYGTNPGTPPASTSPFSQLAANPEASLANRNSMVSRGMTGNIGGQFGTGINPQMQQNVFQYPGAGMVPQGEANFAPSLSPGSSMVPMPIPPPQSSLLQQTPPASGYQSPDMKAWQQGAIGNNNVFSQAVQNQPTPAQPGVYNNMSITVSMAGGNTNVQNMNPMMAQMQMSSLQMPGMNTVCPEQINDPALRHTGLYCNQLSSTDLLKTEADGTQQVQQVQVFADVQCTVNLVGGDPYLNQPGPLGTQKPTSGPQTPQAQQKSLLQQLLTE"}, "source": "PubChem BioAssay AID588354", "about": "(The Scripps Research Institute Molecular Screening Center, 2011)", "note": "Only a part is listed here, and it is no random draw. The source made the active and inactive calls.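 How the source made its calls: active means inhibition above the campaign mean plus 3 SD, with each screening campaign given its own cutoff (cut at about 60% in these data); inactive means the rest.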"}
{"target": "Nuclear receptor coactivator 1 (Homo sapiens) (UniProt Q15788)", "test": "SRC1 coactivator transcriptional activity inhibitors, primary screen, cell-based, luminescence (AID 588354);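 further: 0% = DMSO treated cells and 100% = gossypol at 36 µM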", "conditions": "HEK293 GAL4-SRC1 luciferase reporter, at 3.6 µM, hits give high values"}
{"smiles": "CCOC(=O)C(CC)C1=NC(C)(C)Cc2ccccc21.O=[N+]([O-])c1cc([N+](=O)[O-])c(O)c([N+](=O)[O-])c1", "note": "(centres undefined)", "inhibition": "inactive: -0.78%"}
{"smiles": "CC1=C2N=C(C=C3N=C(C(C)=C4[N-][C@@](C)([C@@H]5N=C1[C@](C)(CCC(=O)NC[C@@H](C)OP(=O)([O-])O[C@H]1[C@@H](O)[C@@H](n6cnc7cc(C)c(C)cc76)O[C@@H]1CO)[C@H]5CC(N)=O)[C@@](C)(CC(N)=O)[C@@H]4CCC(N)=O)[C@@](C)(CC(N)=O)[C@@H]3CCC(N)=O)C(C)(C)[C@@H]2CCC(N)=O.[C-]#N.[Co+3]", "inhibition": "inactive: 3.71%"}
{"smiles": "O=[N+]([O-])c1cc([N+](=O)[O-])c(Nc2nnnn2CCO)c([N+](=O)[O-])c1", "inhibition": "inactive: -5.38%"}
{"smiles": "CCCOc1ccc(NP(C)(=O)Oc2ccc(Cl)cc2)cc1", "note": "(centres undefined)", "inhibition": "inactive: -18.2%"}
{"smiles": "CP(=O)(Nc1ccc(SC(F)(F)F)cc1)Oc1ccccc1", "note": "(centres undefined)", "inhibition": "inactive: 7.61%"}
{"smiles": "COc1ccccc1OP(C)(=O)Nc1c(C)cccc1C", "note": "(centres undefined)", "inhibition": "inactive: 0.56%"}
{"smiles": "CN1CCCCC1COC(=O)C1(O)c2ccccc2CCc2ccccc21", "note": "(centres undefined)", "inhibition": "inactive: 11.9%"}
{"smiles": "CN(Cc1cccnc1)C(=O)COc1ccc(Cl)c(Cl)c1.O=[N+]([O-])c1cc([N+](=O)[O-])c(O)c([N+](=O)[O-])c1", "inhibition": "inactive: 11.4%"}
{"smiles": "O=[N+]([O-])c1cc([N+](=O)[O-])c(-n2nnc3ccccc32)c([N+](=O)[O-])c1", "inhibition": "inactive: -3.24%"}
{"smiles": "Cc1nc2ccc3ccccc3c2s1.O=[N+]([O-])c1cc([N+](=O)[O-])c(O)c([N+](=O)[O-])c1", "inhibition": "inactive: 3.02%"}
{"smiles": "O=[N+]([O-])c1cc([N+](=O)[O-])c(-c2cnn(-c3ccccc3)c2)c([N+](=O)[O-])c1", "inhibition": "inactive: -5.65%"}
{"smiles": "Cc1cc(C)cc(OP(C)(=O)Nc2ccc(C)cc2C)c1", "note": "(centres undefined)", "inhibition": "inactive: -3.94%"}
{"smiles": "CCOC(=O)c1ccc(NP(C)(=O)Oc2cc(C)cc(C)c2)cc1", "note": "(centres undefined)", "inhibition": "inactive: -19.1%"}
{"smiles": "COc1ccccc1OP(C)(=O)Nc1cccc(Br)c1", "note": "(centres undefined)", "inhibition": "inactive: 1.03%"}
{"smiles": "Cc1cc(C)cc(OP(C)(=O)Nc2ccccn2)c1", "note": "(centres undefined)", "inhibition": "inactive: -3.71%"}
{"smiles": "Cc1ccc(C)c(NP(C)(=O)Oc2ccccc2)c1", "note": "(centres undefined)", "inhibition": "inactive: -15.7%"}
{"smiles": "O=C(O)c1cccc(Nc2c([N+](=O)[O-])cc([N+](=O)[O-])cc2[N+](=O)[O-])c1", "inhibition": "inactive: 0.89%"}
{"smiles": "CC1=NCCc2c1[nH]c1ccccc21.O=[N+]([O-])c1cc([N+](=O)[O-])c(O)c([N+](=O)[O-])c1", "inhibition": "inactive: -11.4%"}
{"smiles": "Cc1cccc(C)c1OP(C)(N)=O", "note": "(centres undefined)", "inhibition": "inactive: -3.22%"}
